According to patent US6593108B1, “Nucleic acid molecule encoding a melanin-concentrating hormone receptor 2 polypeptide” (priority 1999, dated 2003):
pEC50: −log10 of the molar value.

Sequences of proteins named here, by UniProt entry; tags and fusion partners are left off. A change or cut given only in a name is not applied to a line headed by its entry.
UniProt Q969V1: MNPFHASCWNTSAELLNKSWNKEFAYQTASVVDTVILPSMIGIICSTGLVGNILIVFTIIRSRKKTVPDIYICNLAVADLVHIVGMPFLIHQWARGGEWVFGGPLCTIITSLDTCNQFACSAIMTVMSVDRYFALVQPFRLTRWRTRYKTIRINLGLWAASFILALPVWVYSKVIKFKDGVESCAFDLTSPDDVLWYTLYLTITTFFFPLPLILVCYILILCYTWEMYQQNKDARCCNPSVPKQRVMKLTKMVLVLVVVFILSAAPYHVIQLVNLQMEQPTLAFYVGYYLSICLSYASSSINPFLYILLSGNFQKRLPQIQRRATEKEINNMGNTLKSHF

Assays:
HG67 [1] = molecular target: T1, HG67 (Homo sapiens, UniProt Q969V1); test: Aequorin assay in HEK293/aeq17/Gα15 cells transfected with HG67; type: cell-based; conditions: read-out: EC50 for HG67 in the aequorin assay, two days post transfection
T1 construct: expressed in transfected cells; host or cells: HEK-293T, transient
Source text: The complete coding sequence of HG67 cloned in pCR3.1. (Invitrogen, Carlsbad, Calif., USA), was subcloned into pIRESpuromycin (Clontech, Inc., Palo Alto, Calif., USA). Clones were confirmed by DNA sequencing.
The HEK293/aeq17 cell line was employed to measure activity. (Button and Brownstein, 1993, Cell Calcium, 14:663-671.) The complete coding sequence of mouse promiscuous G protein Gα15 was cloned into the vector pIRES/zeocin (Clontech, Palo Alto, Calif., USA). The resulting plasmid was transfected into HEK293/aeq17 cells using Lipofectamine (GIBCO-BRL, Gaithersburg, Md., USA) and selected with zeocin. Individual stable colonies were isolated and tested for coupling of various receptors. […]
HEK/293/aeq17/Gα15 were grown in Dulbecco's Modified Medium (DMEM, GIBCO-BRL, Gaithersburg, Md., USA) +10% fetal bovine serum (heat inactivated), 1 mM sodium pyruvate, 500 μg/ml Geneticin, 200 μg/ml zeocin, 100 μg/ml streptomycin, 100 units/ml penicillin. […] The cell density was determined by counting with a hemacytometer and adjusted to 500,000 cells/ml in ECB.
Human MCH was diluted in ECB into 2× concentrates using 5-fold serial dilutions, and aliquoted into assay plates in triplicates at 0.1 ml/well. The cell suspension was injected at 0.1 ml/well, read and integrated for a total of 400 readings using a luminometer (Luminoskan Ascent, Labsystems Oy, Helsinki, Finland). […]

HG67 [2] = molecular target: T1, HG67; test: Intracellular calcium ([Ca2+]i) measurement with fura-2 in HEK293T cells transiently expressing HG67; type: cell-based; conditions: read-out: EC50 of increase in intracellular calcium levels; HEK293T cells transiently expressing HG67, fura-2
Source text: The entire coding sequence of human HG67 was cloned into BamHI -NotI site of pEF1/V5-HisB plasmid vector (Invitrogen, Carlsbad, Calif.). The resultant construct was transfected into HEK-293T cells using Effectene (Qiagen, Hilden, Germany) or LipofectAmine PLUS (Life Technologies) according to the manufacture's instructions. Human embryonic kidney cells constitutively expressing SV40 large T antigen (HEK-293T) were maintained in D-MEM/F-12 medium (Life Technologies, Rockville, Md.) supplemented with 10% fetal bovine serum, 100 units/ml penicillin-G and 100 μg/ml streptomycin at 37° C. with 5% CO2 in a humidified atmosphere.
The intracellular calcium ion concentration ([Ca^2+]i) was measured fluorometrically using a Ca^2+-sensitive fluorescent dye, fura-2. […] Five microliters of dimethyl sulfoxide (DMSO) solution of MCH (Peptide Institute, Osaka, Japan) or [Phe^13, Leu^19]-MCH (Neosystem Laboratories, Strasbourg, France) was added into the cell suspension, and fluorescent intensity at an emission wavelength of 500 nm and excitation wavelengths of 340 and 380 nm was monitored with a CAF-110 intracellular ion analyzer (JASCO, Tokyo, Japan).

## Melanin-concentrating hormone [MCH]
HG67 [1]
  pEC50: 7.59
HG67 [2]
  pEC50: 10.70
